Measured values from US9706755B2, “Controlled odor mimic permeation system” (dated 2017).

Assay: Vapour pressure of organic explosives at 25° C.
Settings: DMNB versus any of the nitramine explosives

## CC(C)([N+](=O)[O-])C(C)(C)[N+](=O)[O-]
  vapour pressure relative to the nitramine explosives: more than 1 million
